According to PubChem BioAssay (NCI):
This is a selection; strong and weak results do not stand in their true shares.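 Step 1: grow cells in 96-well plates. Step 2: add test compound at a single concentration. Step 3: incubate 48 h. Step 4: record percent growth.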 The source made the active and inactive calls. The calls were made as follows: active = growth percent below 10; inactive = the rest.

What was measured:
Assay in all cases: NCI-60 one-dose screen, 48 h (100 = growth as untreated, 0 = no growth, -100 = all killed)
Details in all cases: 10 µM unless noted
NCI/ADR-RES ovarian = test system: NCI/ADR-RES ovarian
T-47D breast = test system: T-47D breast
BT-549 breast = test system: BT-549 breast
MDA-MB-435 melanoma = test system: MDA-MB-435 melanoma
SW-620 colon = test system: SW-620 colon
MCF7 breast = test system: MCF7 breast
HCT-116 colon = test system: HCT-116 colon
HCC-2998 colon = test system: HCC-2998 colon
KM12 colon = test system: KM12 colon

Measured: growth

Nc1ccc([As](=O)(O)c2ccc([N+](=O)[O-])cc2)cc1
inactive: NCI/ADR-RES ovarian 84.1% | T-47D breast 91.7% | BT-549 breast 117% | MDA-MB-435 melanoma 107% | SW-620 colon 107% | MCF7 breast 105% | HCT-116 colon 102% | HCC-2998 colon 131% | KM12 colon 103%

O=C(c1ccc([N+](=O)[O-])cc1)N(CCCl)CCCl
inactive: NCI/ADR-RES ovarian 105% | T-47D breast 104% | BT-549 breast 102% | MDA-MB-435 melanoma 91.3% | SW-620 colon 118% | MCF7 breast 98.5% | HCT-116 colon 104% | HCC-2998 colon 112%

COc1cc([N+](=O)[O-])c([N+](=O)[O-])cc1N
inactive: NCI/ADR-RES ovarian 97% | T-47D breast 96.3% | BT-549 breast 101% | MDA-MB-435 melanoma 102% | SW-620 colon 104% | MCF7 breast 95.3% | HCT-116 colon 100% | HCC-2998 colon 95.3% | KM12 colon 107%

CC(C)OP(=S)(Cl)OC(C)C
inactive: NCI/ADR-RES ovarian 110% | T-47D breast 93.7% | BT-549 breast 106% | MDA-MB-435 melanoma 99.7% | SW-620 colon 103% | MCF7 breast 96.3% | HCT-116 colon 100% | HCC-2998 colon 108% | KM12 colon 108%

CC(C)N(CCCl)/N=N/c1nc2nc[nH]c(=O)c2[nH]1
inactive: NCI/ADR-RES ovarian 102% | T-47D breast 94.1% | BT-549 breast 108% | MDA-MB-435 melanoma 108% | SW-620 colon 104% | MCF7 breast 105% | HCT-116 colon 110% | HCC-2998 colon 98.2% | KM12 colon 107%

ClC(Cl)(Cl)C1SCCS1
inactive: NCI/ADR-RES ovarian 105% | T-47D breast 97.6% | BT-549 breast 105% | MDA-MB-435 melanoma 102% | SW-620 colon 102% | MCF7 breast 100% | HCT-116 colon 107% | HCC-2998 colon 110% | KM12 colon 120%

N/C(=N/[N+](=O)[O-])N(CCBr)N=O
inactive: NCI/ADR-RES ovarian 101% | T-47D breast 89.4% | BT-549 breast 94.2% | MDA-MB-435 melanoma 92.6% | SW-620 colon 104% | MCF7 breast 96.8% | HCT-116 colon 89.5% | HCC-2998 colon 96.7% | KM12 colon 94.5%

O=C(OC1CN2CCC1CC2)c1ccccc1 (centres undefined)
inactive: NCI/ADR-RES ovarian 103% | T-47D breast 102% | BT-549 breast 114% | MDA-MB-435 melanoma 94% | SW-620 colon 103% | MCF7 breast 101% | HCT-116 colon 108% | HCC-2998 colon 103% | KM12 colon 112%

CCCCCCC(C)OP(O)OC(C)CCCCCC (centres undefined)
inactive: NCI/ADR-RES ovarian 100% | T-47D breast 94.5% | BT-549 breast 107% | MDA-MB-435 melanoma 108% | SW-620 colon 103% | MCF7 breast 96.1% | HCT-116 colon 99.5% | HCC-2998 colon 102% | KM12 colon 105%

Cc1ccccc1C(=O)N(CCCl)CCCl
inactive: NCI/ADR-RES ovarian 105% | T-47D breast 96.7% | BT-549 breast 108% | MDA-MB-435 melanoma 95.8% | SW-620 colon 108% | MCF7 breast 93.9% | HCT-116 colon 105% | HCC-2998 colon 99.5% | KM12 colon 113%

O=C(Oc1c(Cl)cc(Cl)cc1[N+](=O)[O-])c1cc([N+](=O)[O-])cc([N+](=O)[O-])c1
inactive: NCI/ADR-RES ovarian 98% | T-47D breast 101% | BT-549 breast 103% | MDA-MB-435 melanoma 98.3% | SW-620 colon 102% | MCF7 breast 111% | HCT-116 colon 108% | HCC-2998 colon 105% | KM12 colon 104%

ClCCN(Cc1ccc(Cl)cc1)Cc1ccc(Cl)cc1
inactive: NCI/ADR-RES ovarian 89.5% | T-47D breast 75% | BT-549 breast 97.5% | MDA-MB-435 melanoma 100% | SW-620 colon 76.7% | MCF7 breast 58.2% | HCT-116 colon 93.5% | HCC-2998 colon 110% | KM12 colon 99.4%

CCOP(=O)(Nc1ccccc1Cl)OCC
inactive: NCI/ADR-RES ovarian 96.8% | T-47D breast 98.5% | BT-549 breast 85.6% | MDA-MB-435 melanoma 105% | SW-620 colon 93.6% | MCF7 breast 106% | HCT-116 colon 93.1% | HCC-2998 colon 107% | KM12 colon 90.9%

COC(=O)C1(C)COP(=O)(NCc2ccccc2)OC1 (centres undefined)
inactive: NCI/ADR-RES ovarian 107% | T-47D breast 99.9% | BT-549 breast 94.9% | MDA-MB-435 melanoma 106% | SW-620 colon 108% | MCF7 breast 99.5% | HCT-116 colon 102% | HCC-2998 colon 98.7% | KM12 colon 101%

Cc1ccccc1CN(CCCl)Cc1ccccc1C
inactive: NCI/ADR-RES ovarian 106% | T-47D breast 79.9% | BT-549 breast 111% | MDA-MB-435 melanoma 111% | SW-620 colon 94.3% | MCF7 breast 96.6% | HCT-116 colon 102% | HCC-2998 colon 96.8% | KM12 colon 97.7%
